Experimental data taken from patent publication US20250361280A1 (Protagonist Therapeutics, Inc., priority 2022, published 2025).

Tests used:
ferroportin [1] = molecular target: T1, ferroportin (Homo sapiens, UniProt Q9NP59); assay: FPN internalization assay (FPN activity assay), loss of ferroportin-GFP fluorescence; format: cell-based
T1 sequence (Q9NP59 1-571): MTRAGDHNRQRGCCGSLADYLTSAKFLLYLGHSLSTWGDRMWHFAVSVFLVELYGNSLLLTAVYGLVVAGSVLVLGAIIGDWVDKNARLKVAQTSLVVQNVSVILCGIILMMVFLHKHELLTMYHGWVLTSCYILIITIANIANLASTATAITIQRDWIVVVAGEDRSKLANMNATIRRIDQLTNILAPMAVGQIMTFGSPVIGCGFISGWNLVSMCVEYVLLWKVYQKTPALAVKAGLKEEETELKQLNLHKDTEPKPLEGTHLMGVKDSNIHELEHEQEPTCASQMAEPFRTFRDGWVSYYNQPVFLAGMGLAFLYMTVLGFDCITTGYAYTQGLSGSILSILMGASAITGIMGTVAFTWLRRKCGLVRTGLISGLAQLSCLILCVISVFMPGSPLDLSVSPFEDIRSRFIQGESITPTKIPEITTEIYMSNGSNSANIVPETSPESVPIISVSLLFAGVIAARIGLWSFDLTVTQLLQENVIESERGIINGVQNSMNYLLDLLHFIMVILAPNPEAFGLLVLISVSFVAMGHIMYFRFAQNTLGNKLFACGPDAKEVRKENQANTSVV

ferroportin [2] = molecular target: T1, ferroportin; assay: T47D internalization assay in presence of mouse serum albumin; format: cell-based; design: a human breast carcinoma adherent cell line which endogenously expresses ferroportin; host or cells: T47D; conditions: T47D cells, 0.5% mouse serum albumin, 1 hr incubation
Procedure: The potency of the peptides disclosed in causing ferroportin internalization was evaluated in a T47D cell-based assay. […] In this internalization assay, the potency of the test peptides was evaluated in presence of serum albumin which is the main protein component in the blood. T47D cells were maintained in RPMI media (containing required amount of fetal bovine serum) and regularly sub-cultured. In preparation for the assay, the cells were seeded in 96-well plates at a density of 80-100 k cells per well in 100 ul volume and allowed to rest overnight. On the next day, test peptides were first prepared in dilution series (10-point series, starting concentration of ˜5 μM, typically 3-4×fold dilution steps), all with 0.5% mouse serum albumin (MSA purified from mouse serum; Sigma, A3139). The test peptide dilution series were allowed to incubate at room temperature for 30 min. Then the media was aspirated from the 96-well cell plate and test peptide dilution series were added. After 1 hr incubation, the media with test peptides was aspirated out and AF647-conjugated detection peptide was added at fixed concentration of 200 nM. The AF647-conjugated detection peptide was previously verified to bind to ferroportin and cause its internalization. The cells were washed again after a 2 hr incubation in preparation for flow cytometry analysis. The Median Fluorescence Intensity (MFI) of the AF647-positive population was measured (after removing dead cells and non-singlets from the analysis). The MFI values were used to generate a dose-response curve and obtain IC50 potencies for the test peptides. The IC50 potencies were calculated by using 4-parameter non-linear fitting function in Graphpad Prism and the results are provided in Table 1C.

[3] = Table 1D, HEK293 cells stably expressing ferroportin-GFP, compound at least 18 hours, read-out: IC50: FPN
[4] = Table 1D, read-out: IC50: T47D MSA
[5] = Table 1C, read-out: IC50: T47D MSA

Compound | IC50 (ferroportin [1]; [3]) [nM] | IC50 (ferroportin [2]; [4]) [nM] | IC50 (ferroportin [2]; [5]) [nM] | also measured
CC(C)CC(=O)N[C@@H](CCC(=O)O)C(=O)N[C@H](C(=O)N[C@@H](Cc1c[nH]cn1)C(=O)N[C@H](C(=O)N1CCC[C@H]1C(=O)NCCCCc1ccc(I)cc1)C(c1ccccc1)c1ccccc1)[C@@H](C)O [compound 98] |  |  |  | IC50 (ferroportin [1]): > 500 nM; IC50 (ferroportin [2]; IC50: T47D MSA (nM, Table 1D)): > 500 nM
CCCCCCCCCCCCCCCC(=O)NCC[N+](C)(C)CC(=O)NCCOCCOCC(=O)NCCOCCOCC(=O)NCCCC[C@H](NC(=O)[C@@H]1CCCN1C(=O)[C@@H](NC(=O)[C@H](Cc1c[nH]cn1)NC(=O)[C@@H](NC(=O)[C@H](CCC(=O)O)NC(=O)CC(C)C)[C@@H](C)O)C(c1ccccc1)c1ccccc1)C(=O)NCCCc1ccc(F)cc1 [compound 104] |  |  |  | IC50 (ferroportin [1]): > 500 nM; IC50 (ferroportin [2]; IC50: T47D MSA (nM, Table 1D)): 0.1 to 10 nM
CCCCCCCCCCCCCCCC(=O)NCC[N+](C)(C)CC(=O)NCCOCCOCC(=O)NCCOCCOCC(=O)NCCCC[C@H](NC(=O)[C@@H]1CCCN1C(=O)[C@@H](NC(=O)[C@H](Cc1c[nH]cn1)NC(=O)[C@@H](NC(=O)[C@H](CCC(=O)O)NC(=O)CC(C)C)[C@@H](C)O)C(c1ccccc1)c1ccccc1)C(=O)Nc1nnc(COc2ccccc2)o1 [compound 102] |  |  |  | IC50 (ferroportin [2]; IC50: T47D MSA (nM, Table 1D)): 0.1 to 10 nM
CCCCCCCCCCCCCCCC(=O)NCC[N+](C)(C)CC(=O)NCCOCCOCC(=O)NCCOCCOCC(=O)NCCCC[C@H](NC(=O)[C@@H]1C[C@@H]2CN1C(=O)[C@H](C(c1ccccc1)c1ccccc1)NC(=O)[C@H](Cc1c[nH]cn1)NC(=O)[C@H]([C@@H](C)O)NC(=O)[C@@H](NC(=O)CC(C)C)CCC1=NN=C(O1)C(CC)N2)C(=O)NCCCCc1ccccc1 (stereo partly drawn) [compound 122] |  |  |  | IC50 (ferroportin [2]; IC50: T47D MSA (nM, Table 1D)): 10 to 100 nM
COC(=O)CC[C@H](NC(=O)CC(C)C)C(=O)N[C@H](C(=O)N[C@@H](Cc1c[nH]cn1)C(=O)N[C@H](C(=O)N1CCC[C@H]1C(=O)N1CCC[C@@H]1C(=O)N(C)[C@@H](CCCCNC(=O)COCCOCCNC(=O)COCCOCCNC(=O)[C@H](CN)NC(=O)CCCCCCCCCCCCCCCCC(=O)O)C(=O)N[C@H](CC(=O)N[C@H](CCCCN)C(N)=O)Cc1ccccc1)C(c1ccccc1)c1ccccc1)[C@@H](C)O [compound 43] |  |  | > 500 | 
COC(=O)CC[C@H](NC(=O)CC(C)C)C(=O)N[C@H](C(=O)N[C@@H](Cc1c[nH]cn1)C(=O)N[C@H](C(=O)N1CCC[C@H]1C(=O)N(C)[C@@H](CCCCNC(=O)CCCCCNC(=O)C[N+](C)(C)CCNC(=O)CCCCCCCCCCCCCCCCC(=O)O)C(=O)N[C@H](C(N)=O)C(c1ccccc1)c1ccccc1)C(c1ccccc1)c1ccccc1)[C@@H](C)O [compound 40] |  |  | 100 to 500 | 
COC(=O)CC[C@H](NC(=O)CC(C)C)C(=O)N(C)[C@H](C(=O)N[C@@H](Cc1c[nH]cn1)C(=O)N[C@H](C(=O)N1CCC[C@H]1C(=O)N(C)[C@@H](CCCCNC(=O)C[N+](C)(C)CCNC(=O)CCCCCCCCCCCCCCCCC(=O)O)C(=O)N[C@H](C(N)=O)C(c1ccccc1)c1ccccc1)C(c1ccccc1)c1ccccc1)[C@@H](C)O [compound 42] |  |  | > 500 | 
COC(=O)CC[C@H](NC(=O)CC(C)C)C(=O)N[C@H](C(=O)N[C@@H](Cc1c[nH]cn1)C(=O)N[C@H](C(=O)N1CCC[C@H]1C(=O)NCC(=O)N1CCC[C@H]1C(=O)N(C)[C@@H](CCCCNC(=O)COCCOCCNC(=O)COCCOCCNC(=O)[C@H](CN)NC(=O)CCCCCCCCCCCCCCCCC(=O)O)C(=O)N[C@H](CC(=O)N[C@H](CCCCN)C(N)=O)Cc1ccccc1)C(c1ccccc1)c1ccccc1)[C@@H](C)O [compound 44] |  |  | > 500 | 
CCCCCCCCCCCCCCCC(=O)NCCCCCC(=O)N[C@H]1C[C@@H](C(=O)N[C@H](C(N)=O)C(c2ccccc2)c2ccccc2)N(C(=O)[C@@H](NC(=O)[C@H](Cc2c[nH]cn2)NC(=O)[C@@H](NC(=O)[C@H](CCC(=O)O)NC(=O)CC(C)C)[C@@H](C)O)C(c2ccccc2)c2ccccc2)C1 [compound 34] |  |  | > 500 | 
COC(=O)CC[C@H](NC(=O)CC(C)C)C(=O)N[C@H](C(=O)N[C@@H](Cc1c[nH]cn1)C(=O)N[C@H](C(=O)N1CCC[C@H]1C(=O)NCC(=O)N1CCC[C@@H]1C(=O)N(C)[C@@H](CCCCNC(=O)COCCOCCNC(=O)COCCOCCNC(=O)[C@H](CN)NC(=O)CCCCCCCCCCCCCCCCC(=O)O)C(=O)N[C@H](CC(=O)N[C@H](CCCCN)C(N)=O)Cc1ccccc1)C(c1ccccc1)c1ccccc1)[C@@H](C)O [compound 45] |  |  | > 500 | 

More lines, main results first:

IC50 (ferroportin [1]; [3]) [nM] | IC50 (ferroportin [2]; [4]) [nM] | IC50 (ferroportin [2]; [5]) [nM] | Compound | also measured
1 to 30 | 0.1 to 10 |  | CCCCCCCCCCCCCCCC(=O)NCCCCCC(=O)NCCOCCOCC(=O)NCCOCCOCC(=O)NCCCC[C@H](NC(=O)[C@@H]1CCCN1C(=O)[C@@H](NC(=O)[C@H](Cc1c[nH]cn1)NC(=O)[C@@H](NC(=O)[C@H](CCC(=O)O)NC(=O)CC(C)C)[C@@H](C)O)C(c1ccccc1)c1ccccc1)C(=O)NCCCCCc1ccccc1 [compound 91] | 
1 to 30 | 100 to 500 |  | CCCCCCCCCCCCCCCC(=O)N[C@@H](CN)C(=O)NCCOCCOCC(=O)NCCOCCOCC(=O)NCCCC[C@H](NC(=O)[C@@H]1C[C@@H]2CN1C(=O)[C@H](C(c1ccccc1)c1ccccc1)NC(=O)[C@H](Cc1c[nH]cn1)NC(=O)[C@@H](NC(=O)[C@H](CCC(=O)O)NC(=O)CC(C)C)CCSS2)C(=O)NCCCCc1ccccc1 [compound 179] | 
1 to 30 | 0.1 to 10 |  | CCCCCCCCCCCCCCCC(=O)NCC[N+](C)(C)CC(=O)NCCOCCOCC(=O)NCCOCCOCC(=O)NCCCC[C@H](NC(=O)[C@@H]1CCCN1C(=O)[C@@H](NC(=O)[C@H](Cc1c[nH]cn1)NC(=O)[C@@H](NC(=O)[C@H](CCC(=O)O)NC(=O)CC(C)C)[C@@H](C)O)C(c1ccccc1)c1ccccc1)C(=O)NCCCCc1ccccc1 [compound 220] | 
30 to 100 | > 500 |  | CC(C)CC(=O)N[C@@H](CCC(=O)O)C(=O)N[C@H](C(=O)N[C@@H](Cc1c[nH]cn1)C(=O)N[C@H](C(=O)N1CCC[C@H]1C(=O)N[C@H](CCCCN)C(=O)N(CC1CC1)C(CCc1ccccc1)C(=O)O)C(c1ccccc1)c1ccccc1)[C@@H](C)O (stereo partly drawn) [compound 152] | 
1 to 30 | > 500 |  | CC(C)CC(=O)N[C@@H](CCC(=O)O)C(=O)N[C@H]1CSSC[C@@H](C(=O)N[C@@H](CCCC[N+](C)(C)C)C(=O)N[C@@H](C(N)=O)C(c2ccccc2)c2ccccc2)NC(=O)[C@H](C(C)(C)C)NC(=O)[C@@H]2CCCN2C(=O)[C@H](C(c2ccccc2)c2ccccc2)NC(=O)[C@H](Cc2c[nH]cn2)NC1=O [compound 163] | 
1 to 30 | 0.1 to 10 |  | CCCCCCCCCCCCCCCC(=O)NCC[N+](C)(C)CC(=O)NCCOCCOCC(=O)NCCOCCOCC(=O)NCCCC[C@H](NC(=O)[C@@H]1CCCN1C(=O)[C@@H](NC(=O)[C@H](Cc1c[nH]cn1)NC(=O)[C@@H](NC(=O)[C@H](CCC(=O)O)N(C)C(=O)CC(C)C)[C@@H](C)O)C(c1ccccc1)c1ccccc1)C(=O)NCCCCCc1ccccc1 [compound 110] | 
 | 0.1 to 10 |  | CCCCCCCCCCCCCCCC(=O)NCCOCCOCCOCCOCCOCCOCCOCCOCCOCCOCCOCCOCCC(=O)NCCCC[C@H](NC(=O)[C@@H]1CCCN1C(=O)[C@@H](NC(=O)[C@H](Cc1c[nH]cn1)NC(=O)[C@@H](NC(=O)[C@H](CCC(=O)O)NC(=O)CC(C)C)[C@@H](C)O)C(c1ccccc1)c1ccccc1)C(=O)NCCCCCc1ccccc1 [compound 121] | 
 | 10 to 100 |  | CCCCCCCCCCCCCCCC(=O)NCC[N+](C)(C)CC(=O)NCCOCCOCC(=O)NCCOCCOCC(=O)NCCCC[C@H](NC(=O)[C@@H]1C[C@@H]2CN1C(=O)[C@H](C(c1ccccc1)c1ccccc1)NC(=O)[C@H](Cc1c[nH]cn1)NC(=O)[C@@H]1C[C@@H](CN1C(=O)[C@H](CCC(=O)O)NC(=O)CC(C)C)SS2)C(=O)NCCCCCc1ccccc1 [compound 119] | 
 | 10 to 100 |  | CCCCCCCCCCCCCCCC(=O)N[C@@H](CCC(=O)NCCOCCOCC(=O)NCCOCCOCC(=O)NCCCC[C@H](NC(=O)[C@@H]1CCCN1C(=O)[C@@H](NC(=O)[C@H](Cc1c[nH]cn1)NC(=O)[C@@H](NC(=O)[C@H](CCC(=O)O)NC(=O)CC(C)C)[C@@H](C)O)C(c1ccccc1)c1ccccc1)C(=O)NCCCCCc1ccccc1)C(=O)O [compound 120] | 
